Source: article PMC6842095 (Neuropharmacology, 2019)

The chains behind the UniProt entries cited, without tags or fusion partners. Residues count along the entry.
UniProt P43681, 29-627 K186G/Y218R/T220E/K222F/I229P: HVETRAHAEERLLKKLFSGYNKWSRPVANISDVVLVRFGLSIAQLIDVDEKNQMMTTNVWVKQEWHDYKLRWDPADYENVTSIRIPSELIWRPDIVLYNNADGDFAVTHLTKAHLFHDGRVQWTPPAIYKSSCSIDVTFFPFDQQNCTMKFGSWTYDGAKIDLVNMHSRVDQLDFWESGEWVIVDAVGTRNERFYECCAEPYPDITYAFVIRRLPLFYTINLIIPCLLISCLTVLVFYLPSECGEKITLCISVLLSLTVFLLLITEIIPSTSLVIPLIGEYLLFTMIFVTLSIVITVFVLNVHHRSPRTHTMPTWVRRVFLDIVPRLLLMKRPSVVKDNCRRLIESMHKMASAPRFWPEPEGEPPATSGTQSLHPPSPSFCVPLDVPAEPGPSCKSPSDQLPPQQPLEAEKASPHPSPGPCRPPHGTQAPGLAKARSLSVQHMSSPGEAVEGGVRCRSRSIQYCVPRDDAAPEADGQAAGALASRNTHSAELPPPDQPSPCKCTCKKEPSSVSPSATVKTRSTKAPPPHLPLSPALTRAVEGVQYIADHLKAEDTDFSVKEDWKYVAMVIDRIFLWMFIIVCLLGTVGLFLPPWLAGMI

Target: α4 GREFP β2 AChR (Homo sapiens, UniProt P17787+P43681, I229P/K186G/K222F/T220E/Y218R)
Assay type: binding

CO[C@H]1CC=C2CCN3CCC4=C(CC(=O)OC4)[C@]23C1 [DHβE, dihydro-β-erythroidine]
nH (Hill coefficient): 1.4 ± 0.1
